## Apparent affinities of Ab-95 variants for a coronavirus HR2 peptide

Source: Engelhart et al. 2022 (doi:10.1038/s41597-022-01779-4), MIT Lincoln Laboratory and A-Alpha Bio; data file from the FLAb repository.

The target is the same throughout: PDVDLGDISGINAS, from the HR2 region of SARS-CoV-2 spike.

The variants keep the heavy chain, the linker and the frameworks of Ab-95 (scFv order VH, a 15-residue (Gly4Ser)3 linker, VL).
VH: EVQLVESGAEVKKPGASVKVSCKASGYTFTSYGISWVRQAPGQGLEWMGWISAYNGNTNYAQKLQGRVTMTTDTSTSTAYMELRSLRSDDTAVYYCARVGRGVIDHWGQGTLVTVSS
VL: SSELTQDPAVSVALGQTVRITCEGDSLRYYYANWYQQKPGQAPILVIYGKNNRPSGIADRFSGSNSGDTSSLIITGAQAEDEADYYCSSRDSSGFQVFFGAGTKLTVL

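Phage display of a naive human antibody library on the peptide gave the parent. Library AAYL52 holds single substitutions and randomly drawn double and triple substitutions in the CDRs. Affinity was read by AlphaSeq, a pooled yeast mating assay with surface-displayed partners. Mating (16 h, 30 °C) was followed by selection of diploids and sequencing of their barcodes. Scores were corrected for input abundance and mapped to Kd with protein pairs of known affinity run in the same pool. There are three technical replicates.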

The parent's light chain CDRs are EGDSLRYYYAN, GKNNRPS, SSRDSSGFQVF; each variant's own CDRs replace them letter for letter.
Numbers give log10(Kd / nM), so 0 is 1 nM and 3 is 1 µM. Smaller is tighter.
An entry "ND" has no value in the source: the pair was not observed among the diploids in that replicate. This suggests poor binding but is not conclusive.
Nonspecific signal, from three strains lacking the peptide, appeared in 28% of pairings of library AAYL52, centred on 3.91 (5% of these signals below 2.90); values are not corrected for it. The control count says in how many pairings with the empty strains this scFv gave a signal, with their mean in brackets.

| # | CDR-L1 | CDR-L2 | CDR-L3 | log10 Kd (nM) by replicate | control signals |
|---|---|---|---|---|---|
| 1 | EGDSLRYYNAN | DKNNRPS | SSGDSSGFQVF | 3.66 / 2.92 / ND | 3 of 9 (3.55) |
| 2 | EGDSLRYYYRN | GKNNRPK | SSRDSYGFQVF | 5.02 / 4.73 / 3.27 | 3 of 9 (4.16) |
| 3 | EGDVLRYYYAN | CKNNRPS | SYRDSSGFQVF | 3.55 / ND / ND | 4 of 9 (3.53) |
| 4 | EGISLRYRYAN | GKNNRPS | SSRDSSGFFVF | 2.65 / 2.31 / 2.29 | 4 of 9 (3.61) |
| 5 | EGDSGRTQYAN | GKNNRPS | SSRDSSGFQVF | 2.33 / 2.39 / 2.20 | 0 of 9 |
| 6 | EGDSLRLYYAN | GKNNRPS | SPRDSSGFQYF | 3.30 / 3.22 / ND | 3 of 9 (4.27) |
| 7 | EADSLRYYYFN | GKNRRPS | SSRDSSGFQVF | ND / 4.26 / 4.54 | 3 of 9 (4.20) |
| 8 | EGDSLRYNYAN | GKNNRPS | SSRDSCGFQVI | 1.51 / 1.41 / 1.18 | 1 of 9 (4.33) |
| 9 | EGDSLAYYYAN | GKNNRDS | SSRDSSGFQVR | 2.59 / 2.72 / 2.45 | 2 of 9 (3.22) |
| 10 | EGDSLRYYYAN | GKNFRPS | SFRDSSRFQVF | 4.68 / 3.77 / ND | 2 of 9 (3.99) |
| 11 | EGDYLRFYYAN | GKNNRPS | SSRDSSQFQVF | ND / 5.64 / ND | 1 of 9 (4.02) |
| 12 | EGDSGRYYYAN | GKNNRPS | SSHDSSGFAVF | ND / ND / ND | 0 of 9 |
| 13 | EGDSLRYYYAN | GKANRPY | SSSDSSGFQVF | 3.04 / 3.79 / 2.88 | 2 of 9 (4.84) |
| 14 | EGDSLRTYYAN | GKNWRPS | SSRDSSGWQVF | 3.05 / 3.41 / 3.44 | 6 of 9 (3.99) |
| 15 | EGDSLRPLYAN | GKNNRPS | SCRDSSGFQVF | 2.35 / 2.03 / 2.13 | 0 of 9 |
| 16 | EGDSCRYYYAN | GKNNRPS | SSKDSSGTQVF | 4.43 / 4.75 / ND | 2 of 9 (3.73) |
| 17 | EGDSLRYYYAN | GKYNRPS | SQRASSGFQVF | 3.26 / 3.93 / 4.44 | 3 of 9 (4.03) |
| 18 | EGDSLRYEYAN | GKNVYPS | SSRDSSGFQVF | 2.97 / 3.93 / 3.97 | 4 of 9 (4.49) |
| 19 | EGDSLRNYYAN | GKNNCPS | SSRDYSGFQVF | 4.38 / 4.04 / ND | 6 of 9 (4.20) |
| 20 | EGDSLRYYYAN | GKNNRPC | SQRDSSGFQVF | 3.57 / 5.37 / ND | 3 of 9 (4.59) |
| 21 | EGHSLRYYYAN | GPNNRPS | KSRDSSGFQVF | 5.09 / 4.43 / ND | 3 of 9 (3.96) |
| 22 | EGDSLRYYHAN | GRNNRPS | SSRDSSGFQVF | 1.94 / 2.21 / 1.98 | 3 of 9 (3.83) |
| 23 | EGDSLFYSYAN | GKNNRPS | SSRDSSGFQVF | 1.14 / 1.04 / 0.43 | 6 of 9 (3.97) |
| 24 | EEDSLRYYYAN | GKNNRPG | SSRDSSGFGVF | 4.37 / 4.48 / ND | 1 of 9 (3.83) |
| 25 | EGDSLRYSYAN | GKNNRLS | SSRVSSGFQVF | 2.72 / 2.51 / 1.45 | 1 of 9 (4.47) |
| 26 | EGDSLRYHYAN | EKQNRPS | SSRDSSGFQVF | 1.37 / 1.50 / 1.01 | 4 of 9 (4.61) |
| 27 | EGPSLRYYVAN | WKNNRPS | SSRDSSGFQVF | 4.58 / 4.51 / ND | 4 of 9 (4.39) |
| 28 | EGDSLRGYYAN | AKNNRPS | SSRDSSGFQKF | 3.05 / 2.77 / 2.77 | 5 of 9 (4.11) |
| 29 | EGDSLRYYYAN | GKNKRPN | SSRDSSGFQVN | 4.28 / 3.37 / ND | 2 of 9 (3.02) |
| 30 | EGDSLRYYKAN | KKNNRPS | SHRDSSGFQVF | 4.13 / 3.95 / ND | 3 of 9 (3.87) |
| 31 | EGDSHRYYYAN | GKNNRPS | SSRDSSGFQVM | 2.62 / 3.12 / 3.88 | 5 of 9 (4.15) |

The opening 3 entries, copied out:

| CDR-L1 | CDR-L2 | CDR-L3 | log10 Kd (nM) by replicate | control signals |
|---|---|---|---|---|
| EGDSLRYYNAN | DKNNRPS | SSGDSSGFQVF | 3.66 / 2.92 / ND | 3 of 9 (3.55) |
| EGDSLRYYYRN | GKNNRPK | SSRDSYGFQVF | 5.02 / 4.73 / 3.27 | 3 of 9 (4.16) |
| EGDVLRYYYAN | CKNNRPS | SYRDSSGFQVF | 3.55 / ND / ND | 4 of 9 (3.53) |